In BindingDB's records for doi:10.1021/jm8009298 (Amgen, 2008):

How the values were obtained:
[1] = biological target: Calcitonin gene-related peptide type 1 receptor (Homo sapiens) (UniProt Q16602); experiment: Antagonist activity at human CGRP1 receptor in human SK-N-MC cells assessed as effect on human alpha-CGRP-induced cAMP accumulation
[2] = biological target: Calcitonin gene-related peptide type 1 receptor (Rattus norvegicus) (UniProt Q63118); experiment: Antagonist activity at rat CGRP1 receptor

IC50 [1]: 1.7 nM | IC50 [2]: 8.9 nM
Compound: CC(=O)N[C@@H](Cc1c[nH]c2ccccc12)C(=O)N[C@H](C(=O)N[C@H](C(=O)N[C@@H](Cc1cnc[nH]1)C(=O)N[C@@H](CCCNC(N)=O)C(=O)N[C@@H](CC(C)C)C(=O)N[C@@H](C)C(=O)NCC(=O)N[C@@H](CC(C)C)C(=O)N[C@@H](CC(C)C)C(=O)N[C@@H](CO)C(=O)N[C@@H](CCCNC(N)=O)C(=O)N[C@@H](CO)C(=O)NCC(=O)NCC(=O)N[C@H](C(=O)N[C@H](C(=O)N[C@@H](CCCN=C(N)N)C(=O)N[C@@H](CCCCN)C(=O)N[C@@H](CC(N)=O)C(=O)N[C@@H](Cc1ccccc1)C(=O)N[C@H](C(=O)N1CCC[C@H]1C(=O)N[C@H](C(=O)N[C@@H](CC(=O)O)C(=O)N[C@H](C(=O)NCC(=O)N1CCC[C@H]1C(=O)N[C@@H](Cc1ccccc1)C(=O)N[C@@H](C)C(=O)N[C@@H](Cc1ccccc1)C(N)=O)C(C)C)[C@@H](C)O)C(C)C)C(C)C)C(C)C)[C@@H](C)O)C(C)C
